Experimental data as given in patent publication EP1202975B1 (dated 2000).

Chains of the proteins cited; added tags and fusions are not shown. Residues count along the entry.
UniProt P08709, 61-212 limits assumed: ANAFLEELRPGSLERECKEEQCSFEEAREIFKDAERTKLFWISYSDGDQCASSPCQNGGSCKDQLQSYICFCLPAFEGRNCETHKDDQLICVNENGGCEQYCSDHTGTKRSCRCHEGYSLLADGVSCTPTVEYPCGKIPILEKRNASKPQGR
UniProt P08709, 213-466 limits assumed: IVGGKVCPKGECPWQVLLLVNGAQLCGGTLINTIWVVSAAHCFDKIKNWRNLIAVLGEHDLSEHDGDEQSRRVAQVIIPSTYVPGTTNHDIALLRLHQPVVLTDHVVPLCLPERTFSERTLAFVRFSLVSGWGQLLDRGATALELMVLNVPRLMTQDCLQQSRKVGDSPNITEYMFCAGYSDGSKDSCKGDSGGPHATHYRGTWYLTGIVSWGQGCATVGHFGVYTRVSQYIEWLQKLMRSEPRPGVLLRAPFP

Biological target: TF-VIIa (Homo sapiens, UniProt P08709)
Experiment: TF-VIIa Assay
Details: read-out: IC50 or % Inhibition TF-VIIa (30 µM); cells given as a plain number (IC50)

CNc1cccc(-c2c(Cl)nc(NCCc3ccccc3)c(=O)n2CC(=O)NCc2ccc(C(=N)N)cc2)c1 [compound 95]
IC50: 0.6 µM
